Measurements: patent publication US20050266515A1, “Glyceraldehyde 3-phosphate dehydrogenase-S (GAPDHS), a glycolytic anzyme expressed only in male germ cells, is a target for male contraception” (The University of North Carolina at Chapel Hill, priority 2002, published 2005)

Test system: truncated form of human GAPDHS
Test: Inhibition of dehydrogenase activity of recombinant truncated GAPDHS (NADH accumulation at 340 nm);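 note: recombinant enzyme (1 µg) in glycine–phosphate–EDTA buffer pH 8.9, inhibitors tested from 1 µM to 3 mM, activity relative to DMSO-only controls taken as 100%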
Format: biochemical
Conditions: comparison of IC50 values of Tables 7, 9 and 11
Excerpt: In subsequent studies to test inhibitors identified in computer docking studies, recombinant mouse Gapdh and the truncated form of Gapdhs (tGapdhs, amino acids 106-438) were expressed in DS112 gapA-deficient E. coli strain K-12 (available from the Yale University E. coli Genetics Stock Center, New Haven, Conn., United States of America). The truncated Gapdhs lacks the proline-rich N-terminus, but contains all the amino acids required for enzyme activity. The recombinant proteins were purified and activities were determined with a standard enzyme assay (Schmalhausen et al., 1997). Using this assay, the dehydrogenase activity of Gapdh and tGapdhs was monitored at 340 nm by measuring the accumulation of NADH.
The reaction mixture (200 μl) contained 50 mM glycine, 50 mM potassium phosphate, 5 mM EDTA (pH 8.9), 1 μg of recombinant enzyme (Gapdh or tGapdhs), 0.5 mM NAD, and 0.5 mM glyceraldehyde-3-phosphate. Activities of Gapdh and tGapdh were compared in the presence of various concentrations of inhibitors. Compounds identified as potential inhibitors in modeling studies as described herein were obtained from Ryan Scientific (Mt. Pleasant, S.C., United States of America). Stocks for each compound were prepared by dissolving 5 mg in 50 μl of DMSO. These stocks were divided into 10 μl aliquots and frozen at −20° C. […]

“4-Amino-N-(4-methoxy-phenyl)-3-nitro-benzenesulfonamide-cyclohexyl-urea [Compound T0506_9350]” was tested, and the “selective inhibition: Gapdhs compared to Gapdh” value was “greater inhibition of Gapdhs than Gapdh”.
